# Earlier results, collected in patent publication US20160271085A1, “TREATMENT OF AMYOTROPHIC LATERAL SCLEROSIS WITH LACTATE” (priority 2015, published 2016).
# Settings: in vivo
smiles,measurement,value
CC(O)C(=O)O (stereo not shown) [lactate],lactate in the circulation removed by the liver,approximately 70%
